The source of these data is article PMC8788362, “Rational design and synthesis of 2-(1H-indazol-6-yl)-1H-benzo[d]imidazole derivatives as inhibitors targeting FMS-like tyrosine kinase 3 (FLT3) and its mutants” (Journal of Enzyme Inhibition and Medicinal Chemistry, 2022).

Sequences of proteins named here, by UniProt entry; tags and fusion partners are left off. Residues count along the entry.
UniProt P17948, 27-1338: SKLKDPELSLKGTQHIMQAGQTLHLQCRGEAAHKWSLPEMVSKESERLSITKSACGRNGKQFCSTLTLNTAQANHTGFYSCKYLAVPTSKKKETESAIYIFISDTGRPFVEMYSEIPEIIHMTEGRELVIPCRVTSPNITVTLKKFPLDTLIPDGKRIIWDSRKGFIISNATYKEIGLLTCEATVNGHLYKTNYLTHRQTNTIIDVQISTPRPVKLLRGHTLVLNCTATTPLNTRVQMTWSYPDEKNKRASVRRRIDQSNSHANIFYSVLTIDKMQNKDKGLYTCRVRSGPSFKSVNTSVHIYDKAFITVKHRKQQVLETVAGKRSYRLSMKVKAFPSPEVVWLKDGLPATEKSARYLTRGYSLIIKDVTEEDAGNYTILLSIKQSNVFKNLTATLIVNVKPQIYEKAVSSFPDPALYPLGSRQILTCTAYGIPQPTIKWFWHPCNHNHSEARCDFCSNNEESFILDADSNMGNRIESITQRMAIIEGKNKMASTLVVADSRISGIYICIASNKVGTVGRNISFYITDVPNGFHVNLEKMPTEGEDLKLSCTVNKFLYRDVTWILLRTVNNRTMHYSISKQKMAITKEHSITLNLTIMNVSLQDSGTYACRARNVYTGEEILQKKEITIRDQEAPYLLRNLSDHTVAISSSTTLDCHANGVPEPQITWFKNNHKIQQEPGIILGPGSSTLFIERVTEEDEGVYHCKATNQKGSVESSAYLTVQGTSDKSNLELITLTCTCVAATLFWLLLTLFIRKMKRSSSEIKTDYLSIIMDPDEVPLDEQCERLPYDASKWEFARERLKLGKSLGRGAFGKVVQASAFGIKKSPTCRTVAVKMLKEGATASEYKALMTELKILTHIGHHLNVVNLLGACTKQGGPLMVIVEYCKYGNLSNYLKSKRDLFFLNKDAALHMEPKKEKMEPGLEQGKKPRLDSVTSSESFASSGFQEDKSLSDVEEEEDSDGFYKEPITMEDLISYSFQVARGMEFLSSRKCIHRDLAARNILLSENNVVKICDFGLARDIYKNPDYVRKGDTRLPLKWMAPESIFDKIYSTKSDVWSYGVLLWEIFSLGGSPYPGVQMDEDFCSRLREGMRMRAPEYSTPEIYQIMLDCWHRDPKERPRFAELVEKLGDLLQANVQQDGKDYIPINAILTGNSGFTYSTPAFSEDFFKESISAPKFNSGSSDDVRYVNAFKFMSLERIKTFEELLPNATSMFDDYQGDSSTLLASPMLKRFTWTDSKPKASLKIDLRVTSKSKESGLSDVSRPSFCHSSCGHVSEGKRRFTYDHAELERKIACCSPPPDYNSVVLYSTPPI

The target of this assay is FLT1/VEGFR1 (Homo sapiens, UniProt P17948). Kind of assay: biochemical. The note with it: read-out: % Inhibition FLT1/VEGFR1.

For `CCN1CCN(Cc2cc(C(=O)Nc3ccc4[nH]c(-c5ccc6cn[nH]c6c5)nc4c3)cc(C(F)(F)F)c2)CC1` [8r, N-(2-(1H-Indazol-6-yl)-1H-benzo[d]imidazol-5-yl)-3-((4-ethylpiperazin-1-yl)methyl)-5-(trifluoromethyl)benzamide], the inhibition at 1 µM came to 6%.
